According to patent EP0830890A1, “Surfactants for use in liquid/supercritical CO2” (AIR PRODUCTS AND CHEMICALS, INC., priority 1996, dated 1998):

What was measured:
[1] = Water uptake by surfactant/CO2 mixture (phase behavior, cloud point); format: physicochemical
Procedure: Utilizing the same phase behavior appartus described in Example 1, a known amount of water was added through a sample loop to a surfactant CO2 mixture of known phase behavior (i.e. its cloud point was first determined). Comparisons were made to water solubilization by pure CO2 and compared to the pure surfactant phase behavior to study the effect the water addition had made, if any, on the measured cloud point for the system.
If the surfactant allowed for the uptake of water, the system would show a single phase at water loadings beyond that normally solubilized by CO2. A cloud point could then be measured for the system, and compared to pure water and pure surfactant phase behavior in CO2.

[2] = Solubility in CO2 by cloud point determination in a variable volume view cell

Ethoxylated 2,4,7,9-Tetramethyl-5-decyn-4,7-diol [AP-420]
Wt% of water uptake ([1]; Wt% Surfactant in CO2 0.751, 3110 psi 65°C): 0.277%
Wt% of water uptake ([1]; Wt% Surfactant in CO2 0.751, 4010 psi 65°C, listed as 20 wt% ethoxylate): 0.553%
Wt% of water uptake ([1]; Wt% Surfactant in CO2 0.751, 4500 psi 45°C): 0.277%
Pressure Describing Cloud Point Determinations For Surfactant/CO2Concentrations ([2]; Surfactant Concn. in CO2 1.3646 wt%, 45°C): 2420
Pressure Describing Cloud Point Determinations For Surfactant/CO2Concentrations ([2]; Surfactant Concn. in CO2 1.3646 wt%, 65°C): 3200
Pressure Describing Cloud Point Determinations For Surfactant/CO2Concentrations ([2]; Surfactant Concn. in CO2 2.6028 wt%, 25°C): 2180
Pressure Describing Cloud Point Determinations For Surfactant/CO2Concentrations ([2]; Surfactant Concn. in CO2 2.6028 wt%, 45°C): 3320
Pressure Describing Cloud Point Determinations For Surfactant/CO2Concentrations ([2]; Surfactant Concn. in CO2 3.2104 wt%, 25°C): 2450
Pressure Describing Cloud Point Determinations For Surfactant/CO2Concentrations ([2]; Surfactant Concn. in CO2 3.2104 wt%, 45°C): 3320
Pressure Describing Cloud Point Determinations For Surfactant/CO2Concentrations ([2]; Surfactant Concn. in CO2 3.8330 wt%, 60°C): 3500

Ethoxylated 2,4,7,9-Tetramethyl-5-decyn-4,7-diol [AP-440]
Pressure Describing Cloud Point Determinations For Surfactant/CO2Concentrations ([2]; Surfactant Concn. in CO2 0.6159 wt%, 60°C): 2390
Pressure Describing Cloud Point Determinations For Surfactant/CO2Concentrations ([2]; Surfactant Concn. in CO2 0.6159 wt%, 65°C): 2490
Pressure Describing Cloud Point Determinations For Surfactant/CO2Concentrations ([2]; Surfactant Concn. in CO2 1.2484 wt%, 45°C): 3170
Pressure Describing Cloud Point Determinations For Surfactant/CO2Concentrations ([2]; Surfactant Concn. in CO2 1.2484 wt%, 65°C): 3320
Pressure Describing Cloud Point Determinations For Surfactant/CO2Concentrations ([2]; Surfactant Concn. in CO2 1.8749 wt%, 25°C): 2360
Pressure Describing Cloud Point Determinations For Surfactant/CO2Concentrations ([2]; Surfactant Concn. in CO2 1.8749 wt%, 35°C): 3280
Pressure Describing Cloud Point Determinations For Surfactant/CO2Concentrations ([2]; Surfactant Concn. in CO2 1.8749 wt%, 45°C): 3640
Pressure Describing Cloud Point Determinations For Surfactant/CO2Concentrations ([2]; Surfactant Concn. in CO2 2.8386 wt%, 35°C): 3490

Ethoxylated 2,4,7,9-Tetramethyl-5-decyn-4,7-diol [AP-465]
Pressure Describing Cloud Point Determinations For Surfactant/CO2Concentrations ([2]; Surfactant Concn. in CO2 0.2486 wt%, 45°C): 2200
Pressure Describing Cloud Point Determinations For Surfactant/CO2Concentrations ([2]; Surfactant Concn. in CO2 0.8867 wt%, 25°C): 3570

Ethoxylated 2,4,7,9-Tetramethyl-5-decyn-4,7-diol [Surfynol 485]
Wt% of water uptake ([1]; Wt% Surfactant in CO2 0.237%, 3980 psi 45°C): 0.276%
Wt% of water uptake ([1]; Wt% Surfactant in CO2 0.237%, 4400 psi 65°C): 0.276%
Wt% of water uptake ([1]; Wt% Surfactant in CO2 0.237%, 5720 psi 65°C, listed as 85): 0.826%
Wt% of water uptake ([1]; Wt% Surfactant in CO2 0.237%, 5720 psi 65°C, listed as ethoxylate containing 85 wt% ethylene oxide): 0.826%
Pressure Describing Cloud Point Determinations For Surfactant/CO2Concentrations ([2]; Surfactant Concn. in CO2 0.2737 wt%, 45°C): 3420
CO2 solubility (in words) [2]: too insoluble at appreciable quantities to be used in the studies
CO2 solubility (in words) ([2]; listed as 85): poor CO2 solubility
